Measurements reported in patent US7576059B2, “Peptide derivatives” (Novo Nordisk A/S, priority 1995, dated 2009).

Settings: pigs, subcutaneous injection, external γ-counter

Arg^4,Arg^9,Lys^15 somatostatin
T50% (time when 50% of the 125I-labelled peptide has disappeared from the site of injection): 0.7 ± 0.1 h

Arg^4,Arg^9,Lys^15(N^ε-tetradecanoyl) somatostatin [Example 4]
T50% (time when 50% of the 125I-labelled peptide has disappeared from the site of injection): 1.7 ± 0.5 h
